# Laboratory results published in patent publication US12128037B2, “Sulfasalazine salts, production processes and uses” (priority 2017, dated 2024).
# Legend:
# [1] = Gravimetric vapour sorption (GVS), hygroscopicity; type: physicochemical; conditions: 25° C.
# Method: With regard to the ability (rate and extent) of water vapour uptake, the European Pharmacopoeia Technical guide 2015, General Chapter 5.11. has categorized pharmaceutical solids into four different classes: i.e. as slightly hygroscopic (equal to or greater than 0.2 but less than 2% w/w uptake at RH 80% and 25° C.), hygroscopic (equal to or greater than 2%, but less than 15% w/w uptake at RH 80% and 25° C.), very hygroscopic (equal to or greater than 15% w/w uptake at RH 80% and 25° C.) and deliquescent (sufficient water is absorbed to form a liquid) according to the extent of water uptake.
# Gravimetric vapour sorption (GVS) was used to determine the hygrocopicity of the samples: experiments were performed at 25° C. using a DVS 1 instrument from SMS Ltd to record adsorption-desorption isotherms using different methods, the main features being: a single sorption/desorption cycle from 0 to 80% RH in 10% RH steps with a dm/dt trigger value of 0.002% (dm/dt=change in mass with time—when the balance stability is within this value the next step is automatically started, however, if those conditions are not achieved there is a default maximum time for each step of 6 hours). The sample amount used was 1-3 mg.
# [2] = Solubility in de-ionized water (HPLC); conditions: 24° C. after 24 h
substance,measurement,setting,value
Piperazine 2-hydroxy-5-[2-[4-[(2-pyridinylamino)sulfonyl]phenyl]diazenyl]-benzoate [Form A piperazine salt],water vapor uptake (GVS),[1]; 30% RH,0.4 % w/w
same,water vapor uptake (GVS),[1]; 80% RH,0.9 % w/w
same,solubility in de-ionized water,[2],120 µg/mL
